System: HUVEC
Experiment: MTT cytotoxicity assay
Assay type: cell-based, human
Description: The biotinylated duramycin construct DLB was prepared as described in Example XV. The unmodified duramycin compound and DLB were tested for cytotoxic effects on HUVEC using an MTT assay.

duramycin
cytotoxic effects on HUVEC: dose-dependent toxicity
